Experimental data published in patent publication US20220273751A1, “GPCR HETEROMER INHIBITORS AND USES THEREOF” (GPCR THERAPEUTICS, INC., priority 2019, published 2022).

Protein sequences, listed by entry. Tags and fused reporters are not part of them.
UniProt P61073, whole entry: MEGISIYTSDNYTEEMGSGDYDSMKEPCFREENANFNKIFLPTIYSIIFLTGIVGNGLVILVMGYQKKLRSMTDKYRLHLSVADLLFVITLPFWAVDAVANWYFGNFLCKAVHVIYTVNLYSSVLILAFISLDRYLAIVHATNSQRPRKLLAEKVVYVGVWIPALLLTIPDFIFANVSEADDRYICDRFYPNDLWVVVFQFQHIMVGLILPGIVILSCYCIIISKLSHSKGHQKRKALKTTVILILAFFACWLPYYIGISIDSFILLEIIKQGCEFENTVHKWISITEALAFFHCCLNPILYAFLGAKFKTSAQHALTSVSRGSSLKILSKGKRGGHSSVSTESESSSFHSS

Biological target: T1, CXCR4 (Homo sapiens, UniProt P61073)
T1 construct: expressed in transfected cells; host or cells: MDA-MB-231 (adenoviral transduction)
Experiment: Calcium mobilization assay, MDA-MB-231 cells transduced with CXCR4 only
Type: cell-based
Details: FIG. 5A; CXCL12 15 nM, salmeterol 100 nM

For OCc1cc(C(O)CNCCCCCCOCCCCc2ccccc2)ccc1O (stereo not shown) [salmeterol, Salmeterol], the “calcium response, single agonist, cells expressing CXCR4” value was “did not induce calcium response”.
